Yeast UUG start-1 = modulators of yeast start codon fidelity, primary screen, whole organism, S. cerevisiae, single point, plate reader | AID 602363, 2012 | actives 0.13% (n = 350,000) | activity score, % at 18.7 µM | S. cerevisiae UUG-firefly luciferase reporter, luminescence/redox ratio;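 active means replicate mean at a twofold rise or more, about +100% in these data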;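 further: firefly luciferase made from a UUG start codon reports start codon fidelity; reporter light over untreated wells divided by growth signal over untreated wells; some hits fall short of that in this replicate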
ERp5 inh = inhibitors of ERp5-driven insulin aggregation, primary screen, biochemical, turbidity, absorbance 650 nm, single point; 90 min; inhibition, % at 9.99 µM; hit rate 0.05% among 350,000; AID 651711, 2012;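 active means mean replicate inhibition above about 25%, with every replicate also reaching it, limit read from the data, passing the limit was not always enough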
Cneo AK release = Cryptococcus neoformans cell lysis inducers, primary screen, AK release luminescence, single concentration; lysis activity, % at 15 µM; C. neoformans lysis, adenylate kinase release luminescence, 4 h; normalised: neutral wells 0, clomiphene wells 100; AID 651654, 2012; hit rate 0.2% among 360,000;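 active means mean lysis activity across replicates of at least 80%, whatever share of replicates individually reach that level; inactive means mean lysis activity below 80%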
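Assay system: Cryptococcus neoformans yeast cells / Dosing: single-point compound dose / Timing: 4 h at 37 °C static, read 1 h later / Measured by: luminescence of released adenylate kinase using an AK detection reagent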
PDI inh = inhibitors of human PDI, primary screen, biochemical, turbidity, single point, plate reader | AID 588391, 2011 | PDI insulin aggregation turbidity, A650, 90 min | hit rate 0.052% among 350,000 | Protein disulfide-isomerase (Homo sapiens), P07237 | inhibition, % at 10 µM;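 active means mean inhibition across replicates of 30% or more, whatever share of single replicates reach that level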
Yeast UUG start-2 = enhancers of UUG start codon usage in yeast, dose response, S. cerevisiae, UUG firefly luciferase, cherry-pick, set 2; shares compounds with Yeast UUG start-1; luminescence, 4 h; 100% means double the DMSO signal; activation, % at 38 µM; 540 tested, under 10 active;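 active means signal increase whose fitted curve reaches an absolute level of 40 at a concentration under 10 µM; inactive means activity opposite to the expected increase, or the rest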
Hits are given with their value; – = inactive; · = not tested or not shown. Sampled rows, rich in hits. Any-hit rate of the full collection: about 0.34%.

SMILES	Yeast UUG start-1	ERp5 inh	Cneo AK release	PDI inh	Yeast UUG start-2
Cn1nc(-c2ccccn2)nc2c(=O)n(C)c(=O)nc1-2	–	102	–	139	·
CCn1c(N)nc2c1c(=O)n(C)c(=O)n2C	–	–	–	–	·
COc1ccccc1C1(CCN=Cc2ccc(N(C)C)cc2)CCOC(C)(C)C1 (stereo unspecified)	–	–	–	–	·
CN(C)c1ccc(C=NCCC2(O)CCOC(C)(C)C2)cc1 (stereo unspecified)	118	·	–	–	–
N#CCSc1nnc(-c2sc3ccccc3c2Cl)o1	·	·	·	–	–
COc1ccc(-c2nnc(SCC#N)o2)cc1	–	·	–	–	·
COC(=O)CSc1nnc(-c2sc3ccccc3c2Cl)o1	565	·	–	–	–
C[C@@H]1CCCCO[C@@H](CN(C)Cc2ccccc2)[C@@H](C)CN([C@H](C)CO)C(=O)c2cc(NS(=O)(=O)c3ccc(Cl)cc3)ccc2O1	–	–	–	·	·
CC(C)CC#Cc1ccc2c(c1)O[C@H](CN(C)C(=O)c1cnccn1)[C@@H](C)CN([C@@H](C)CO)S2(=O)=O	·	–	–	·	·
CC(C)C[C@@H](CNCC(=O)[C@H](C)NC(=O)c1[nH]cnc1C(=O)N[C@@H](C)CN)NC(=O)c1nc[nH]c1C(=O)N[C@@H](C)C(=O)O	147	–	–	–	–
CC(C)C[C@@H](CNCC(=O)[C@H](Cc1ccccc1)NC(=O)c1[nH]cnc1C(=O)N[C@@H](C)CN)NC(=O)c1nc[nH]c1C(=O)N[C@@H](C)C(=O)O	130	–	–	–	–
CC(C)CN(C[C@@H]1N[C@@H](CO)[C@@H]1c1ccccc1)C(=O)CN(C)C	–	–	–	·	·
COc1ccccc1S(=O)(=O)N[C@@H]1CC[C@H](CCNC(=O)C2CCCC2)O[C@H]1CO	–	–	–	·	·
Cc1ccc(S(=O)(=O)N[C@@H]2CC[C@@H](CCNC(=O)C3CCCCC3)O[C@@H]2CO)cc1	–	–	–	·	·
COc1ccccc1S(=O)(=O)N[C@H]1CC[C@@H](CCNC(=O)C2CCCC2)O[C@@H]1CO	127	–	–	·	–
CC(C)NC(=O)N[C@H]1CC[C@H](CCNC(=O)C2CCC2)O[C@H]1CO	136	–	–	·	–
Cc1ccc(S(=O)(=O)N[C@H]2CC[C@H](CCNC(=O)C3CCCCC3)O[C@H]2CO)cc1	146	–	–	·	–
N#C[C@@H]1[C@H](c2ccccc2)[C@H](CO)N1S(=O)(=O)c1ccc(-c2ccccc2)cc1	–	–	–	·	·
Cc1noc(C)c1NC(=O)N(C)C[C@H]1Oc2ncc(C#CC3CCCC3)cc2C(=O)N([C@@H](C)CO)C[C@@H]1C	–	–	–	·	·
O=C(C[C@@H]1CC[C@H]2[C@@H](COC[C@H](O)CN2S(=O)(=O)c2ccccc2F)O1)NCc1ccccc1Cl	–	–	–	·	·
COc1ccc(C/C(C)=N/NC(=O)c2ccc(C)cc2C)cc1	539	–	–	–	–
O=C(CNC(=O)c1ccccc1F)NCCc1ccc(Cl)cc1	–	–	–	–	·
O=C(CNC(=O)c1ccccc1F)NCCOc1cccc(Cl)c1Cl	517	·	–	–	–
CC1CCCCC1NC(=O)/C(C#N)=C/c1ccccc1F (stereo unspecified)	222	–	–	–	–
O=C(Cn1cc(C(=O)C2CC2)c2ccccc21)NC1CCCC1	–	·	–	–	–
SMILES	Yeast UUG start-1	ERp5 inh	Cneo AK release	PDI inh	Yeast UUG start-2
O=C(c1cn(CC(=O)N2CCCCC2)c2ccccc12)C1CC1	–	·	–	–	–
O=C(O)Cn1cc(C(=O)C2CC2)c2ccccc21	–	·	–	–	·
CCOC(=O)C1CCN(C(=O)C(=O)c2cn(CC(=O)N3CCCCCC3)c3ccccc23)CC1	–	–	–	–	·
CCOC(=O)C1CCN(C(=O)Cn2cc(C(=O)C3CC3)c3ccccc32)CC1	–	·	–	–	–
O=C(Cn1cc(C(=O)C2CC2)c2ccccc21)NCC1CCCO1 (stereo unspecified)	–	·	–	–	–
COC(=O)c1cn(CC(=O)NC2CCCCC2)c2ccccc12	·	·	·	–	·
C[C@H]1CN([C@@H](C)CO)C(=O)c2cccc(NC(=O)C3CCOCC3)c2O[C@H]1CN(C)CC1CCCCC1	–	–	–	·	·
CO[C@H]1CN(C)C(=O)c2ccc(NS(=O)(=O)c3cccc(C)c3)cc2OC[C@H](C)NC[C@@H]1C	·	–	·	·	·
CCC(=O)N(C)C[C@@H]1Oc2cc(C#Cc3ccccn3)ccc2S(=O)(=O)N([C@@H](C)CO)C[C@@H]1C	–	–	–	·	·
O=C(C[C@@H]1C[C@@H]2c3cc(NS(=O)(=O)c4ccc(F)cc4)ccc3O[C@@H]2[C@H](CO)O1)NCc1ccc(-c2ccccc2)cc1	–	–	–	·	·
C[C@H](NC(=O)C[C@@H]1C=C[C@H](NC(=O)C2CCC2)[C@@H](CO)O1)c1ccccc1	–	–	–	·	·
C[C@@H]1CN([C@H](C)CO)C(=O)Cc2cc(NC(=O)Nc3ccc(F)cc3)ccc2O[C@@H]1CN(C)C(=O)Nc1ccc(F)cc1	–	–	–	·	·
O=C(C[C@@H]1C[C@@H]2c3cc(NS(=O)(=O)c4ccccc4)ccc3O[C@@H]2[C@H](CO)O1)N1CCCCC1	–	–	–	·	·
Cc1[nH]c2ccccc2c1/C=N/NC(=O)c1ccccc1	·	–	·	–	·
Cc1[nH]c2ccccc2c1/C=N/NC(=O)c1cc(-c2ccccc2)n[nH]1	169	–	–	–	–
CCOc1cc(C(=S)N2CCOCC2)ccc1OC(=O)/C=C/c1ccc(OC)c(OC)c1	517	·	–	–	–
CC(C)NC(=O)Nc1ccc2c(c1)C(=O)N([C@@H](C)CO)C[C@H](C)[C@@H](CN(C)C(=O)c1ccccc1)OCCCC[C@H](C)O2	–	–	–	·	·
CSc1ccc(S(=O)(=O)NC2CC2)cc1	155	–	–	–	–
CCCCC12CN3CC(C)(CN(C1)C3c1ccc([N+](=O)[O-])o1)C2=O (stereo unspecified)	146	–	–	–	–
COc1ccccc1Oc1nc2ccccn2c(=O)c1/C=C(\C#N)C(=O)Nc1c(C)n(C)n(-c2ccccc2)c1=O	112	·	–	–	–
Cc1ccc(Oc2nc3ccccn3c(=O)c2/C=C(\C#N)C(=O)Nc2c(C)n(C)n(-c3ccccc3)c2=O)c(C)c1	–	–	–	–	·
Cc1ccc(S(=O)(=O)N(C)C[C@@H]2OCCCC[C@@H](C)Oc3ccc(NS(=O)(=O)c4cccs4)cc3C(=O)N([C@@H](C)CO)C[C@@H]2C)cc1	–	–	–	·	·
CN1CCN(CCC2Oc3cc([N+](=O)[O-])ccc3NC2=O)CC1 (stereo unspecified)	·	–	·	–	–
O=C1Nc2ccc([N+](=O)[O-])cc2OC1CCN1CCN(c2ccccc2)CC1 (stereo unspecified)	–	–	–	–	–
O=C1Nc2ccc([N+](=O)[O-])cc2OC1CCN1CCOCC1 (stereo unspecified)	–	–	–	–	–

High-throughput results as filed in PubChem BioAssay.
